For 18 molecules, inhibition results are on record in PubChem BioAssay AID571 (The Scripps Research Institute Molecular Screening Center, 2007).

Protein sequences, listed by entry. Tags and fused reporters are not part of them.
UniProt P28566, whole entry: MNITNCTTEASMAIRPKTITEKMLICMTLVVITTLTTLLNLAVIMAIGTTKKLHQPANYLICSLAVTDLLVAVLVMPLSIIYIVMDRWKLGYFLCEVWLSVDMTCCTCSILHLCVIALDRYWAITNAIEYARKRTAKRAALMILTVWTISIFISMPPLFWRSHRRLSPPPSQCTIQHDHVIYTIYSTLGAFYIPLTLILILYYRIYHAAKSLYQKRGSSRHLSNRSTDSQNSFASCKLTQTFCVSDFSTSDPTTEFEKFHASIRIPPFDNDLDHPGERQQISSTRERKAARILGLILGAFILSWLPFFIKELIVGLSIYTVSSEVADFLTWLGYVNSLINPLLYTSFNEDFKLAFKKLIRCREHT

Only a part is listed here, and it is no random draw. Activity calls are given as the source filed them.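 The calls were made as follows: active = inhibition above a set limit, the mean inhibition across every tested compound plus 3 SD (cut at about 29% in these data); inactive = the rest.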

The assay concerns the target 5-hydroxytryptamine receptor 1E (Homo sapiens) (UniProt P28566). Kind of assay: blockade of human serotonin 5HT1E receptor – cell-based, HTS, primary screen (AID 571).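 Also: signal is the 460 over 535 nm emission ratio of beta-lactamase substrate; 0% = agonist plus DMSO wells and 100% = wells without agonist.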 To be noted: CHO 5-HT1E Ga15 NFAT-bla reporter, FRET, antagonist; at 6 µM; hits give high values.
As for `Cc1nc2ccc3ccccc3c2o1.O=[N+]([O-])c1cc([N+](=O)[O-])c(O)c([N+](=O)[O-])c1`, the inhibition was inactive: 3.5%. Consider `COc1ccccc1OP(C)(=O)Nc1ccc(C)c(C)c1` (stereo not drawn), for which the inhibition was inactive: -3.69%. As to `CP(=O)(Nc1ccccn1)Oc1ccccc1` (stereo not drawn), the inhibition was inactive: 1.08%. For `CCN(CC)CC(O)COC(=O)C(O)(c1ccccc1)C1CCCCC1` (stereo not drawn), the inhibition was inactive: 0.56%.

`COc1ccccc1OP(C)(=O)Nc1c(C)n(C)n(-c2ccccc2)c1=O` (stereo not drawn): the inhibition was inactive: 12%. Take `CP(=O)(Oc1ccccc1)N1CCOC1=O` (stereo not drawn): the inhibition is inactive: 13.5%.

In the case of `CN(C)CCOC(=O)C(O)(c1ccccc1)C1CCCCC1` (stereo not drawn), the inhibition was inactive: -3.3%. Consider `CP(=O)(Nc1ccc2c(c1)OCCO2)Oc1ccccc1` (stereo not drawn), for which the inhibition was inactive: -2.64%. The result for `Cc1ccccc1NP(C)(=O)Nc1ccccc1C` reads inactive: 6.85%. As for `CCOP(C)(=S)SCC(=O)NC(C)(CC)C(=O)O` (stereo not drawn), the inhibition is inactive: -3.19%. In the case of `CP(=O)(Nc1ccccc1F)Oc1ccccc1` (stereo not drawn), the inhibition was inactive: -3.86%. `Cc1ccc(C)c(NP(C)(=O)Oc2ccccc2)c1` (stereo not drawn): the inhibition is inactive: -1.86%. Regarding `Cc1nc2ccc3ccccc3c2s1.O=[N+]([O-])c1cc([N+](=O)[O-])c(O)c([N+](=O)[O-])c1`, the inhibition was inactive: -2.5%.

`CP(=S)(Nn1cnnc1)Oc1ccccc1` (stereo not drawn): the inhibition was inactive: 4.71%. Take `CCOP(C)(=S)SCC(=O)NC(C)C(=O)O` (stereo not drawn): the inhibition is inactive: -0.24%. For the molecule `CP(=O)(NC(=O)Nc1ccccc1)Oc1ccccc1` (stereo not drawn), the inhibition was inactive: 3.77%. Turning to `COc1ccccc1OP(C)(=O)Nc1ccc(C)cc1` (stereo not drawn), the inhibition was inactive: -0.62%. Regarding `Cc1ccc(NP(C)(=O)Oc2ccccc2)c(C)c1` (stereo not drawn), the inhibition is inactive: -1.7%.

The inhibition is the change of the read-out against control, counted positive when it falls.
